Values of other authors as cited in patent US20120209223A1.
Only a part of the results on these compounds is given; other tests are left out.

Settings: Roy et al., J. Pharm. Sci. 1996

## CCC(=O)N(c1ccccc1)C1CCN(CCc2ccccc2)CC1
  concentration of fentanyl in the polyisobutylene matrix at which active ingredient is precipitating: more than 4%
